The structures appear in SMILES notation. The list shows a part of the results, in another mix than the full data. Activity calls are given as the source filed them.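 How the source made its calls: active means at 10 µM, mean starting fluorescence two-fold or more over control wells; inactive means the rest.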

This assay is described as follows: intrinsic fluorescence of library compounds, ex339/em460 – biochemical, MLSMR library, data from DPM-DC assay, artefact control, profiling panel (AID 709).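 Further: signal is the first read of a kinetic run.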 Conditions: compound autofluorescence, ex339/em460 nm, NADH buffer; at 10 µM; active compounds read high; 1 = no-compound wells, NADH background.
For the compound `O=C(COc1ccccc1)OC1CN2CCC1CC2` (stereo not given), the fluorescence fold increase is inactive: 1.07. Next, `COP1(=S)c2c(C)nn(CCC#N)c2N=C(c2ccc(F)cc2)N1C` (stereo not given): inactive: 1.05; `O=C(OC1CN2CCC1CC2)C12CC3CC(CC(C3)C1)C2` (stereo not given): inactive: 1.08. Regarding `O=P(Nc1nccs1)(c1ccccc1)c1nc2ccccc2s1` (stereo not given), the fluorescence fold increase was inactive: 1.31. Next, `CCOP1(=S)c2c(C)nn(CCC#N)c2N=C(c2ccccc2F)N1C` (stereo not given): inactive: 0.99; `CCOP1(=S)c2c(C)nn(CCC#N)c2N=C(c2ccc(F)cc2)N1C` (stereo not given): inactive: 1.02. Next, `Cc1cccc(OCC(=O)OC2CN3CCC2CC3)c1` (stereo not given): inactive: 1.05; `Clc1n[nH]nc1-c1nn[nH][15n]1`: inactive: 1.13; `O=P1(Nc2ccccn2)COc2ccccc2OC1`: inactive: 1.04. On to `Cc1nn(-c2ccccc2)c2c1P(=O)(N1CCOCC1)N(C)C(c1ccccc1)=N2` (stereo not given), for which the fluorescence fold increase was inactive: 1.04. The result for `O=P1(Nc2ccc(Br)cn2)COc2ccccc2OC1` reads inactive: 1.15; that for `Cc1ccc(OCC(=O)OC2CN3CCC2CC3)cc1` (stereo not given), inactive: 1.12; that for `O=P1(Nc2ncccn2)COc2ccccc2OC1`, inactive: 1.05. Next, `O=C(OC1CN2CCC1CC2)c1cccc(Cl)c1` (stereo not given): inactive: 1.09; `c1nnnn1CCn1cnnn1`: inactive: 1.07; `O=P(Nc1nccs1)(c1ccccc1)c1ccccc1`: inactive: 0.96. The result for `O=P1(Nc2nc3ccc(Cl)cc3s2)COc2ccccc2O1` (stereo not given) reads inactive: 1.12; that for `COC(=O)c1cc2c(s1)N=C(c1ccccc1)N(C)P2(=O)N1CCOCC1` (stereo not given), inactive: 1.1; that for `Cc1c2non([O-])c-2c(C)[n+](=O)[n+]1[O-]`, inactive: 1.06. For `CCc1nc2c(n1)c1c(non1O)c1c2no[n+]1[O-]`, the fluorescence fold increase is inactive: 1.13.
